Test results published in patent US8124633B2, “Hydroxymethyl ether hydroisoindoline tachykinin receptor antagonists” (Merck Sharp & Dohme Corp., priority 2007, dated 2012).

Chains of the proteins cited; added tags and fusions are not shown.
UniProt P25103, whole entry: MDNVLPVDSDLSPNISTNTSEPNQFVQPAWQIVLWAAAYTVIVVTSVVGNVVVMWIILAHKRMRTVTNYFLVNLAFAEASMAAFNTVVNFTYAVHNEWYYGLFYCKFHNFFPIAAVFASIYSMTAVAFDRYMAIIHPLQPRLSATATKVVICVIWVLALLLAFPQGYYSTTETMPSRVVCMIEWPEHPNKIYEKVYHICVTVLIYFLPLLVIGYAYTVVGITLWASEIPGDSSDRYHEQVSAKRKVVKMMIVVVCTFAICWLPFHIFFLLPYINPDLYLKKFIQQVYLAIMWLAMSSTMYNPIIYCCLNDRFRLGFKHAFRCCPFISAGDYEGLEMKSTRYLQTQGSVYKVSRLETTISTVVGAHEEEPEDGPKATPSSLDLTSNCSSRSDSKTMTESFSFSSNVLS

Biological target: human neurokinin-1 receptor (NK1R) (Homo sapiens, UniProt P25103)
Assay: Binding assay of human NK1R expressed in COS or CHO cells (125I-substance P competition)
Settings: 125I-substance P binding to human NK1R expressed in COS or CHO cells
Description: Receptor Expression in COS: To express the cloned human neurokinin-1 receptor (NK1R) transiently in COS, the cDNA for the human NK1R was cloned into the expression vector pCDM9 which was derived from pCDM8 (INVITROGEN) by inserting the ampicillin resistance gene (nucleotide 1973 to 2964 from BLUESCRIPT SK+) into the Sac II site. Transfection of 20 ug of the plasmid DNA into 10 million COS cells was achieved by electroporation in 800 ul of transfection buffer (135 mM NaCl, 1.2 mM CaCl2, 1.2 mM MgCl2, 2.4 mM K2HPO4, 0.6 mM KH2PO4, 10 mM glucose, 10 mM HEPES pH 7.4) at 260 V and 950 uF using the IBI GENEZAPPER (1131, New Haven, Conn.). […]
Assay Protocol using COS or CHO: The binding assay of human NK1R expressed in either COS or CHO cells is based on the use of ^125I-substance P (^125I-SP, from DU PONT, Boston, Mass.) as a radioactively labeled ligand which competes with unlabeled substance P or any other ligand for binding to the human NK1R. […] The bound radioactivity was separated from unbound radioactivity by GF/C filter (BRANDEL, Gaithersburg, Md.) which was pre-wetted with 0.1% polyethylenimine. The filter was washed with 3 ml of wash buffer (50 mM Tris pH 7.5, 5 mM MnCl2, 150 mM NaCl) three times and its radioactivity was determined by gamma counter. […] The extracellular radioactivity is removed by washing with phosphate buffered saline. […]

Structure (SMILES)	IC50 [nM]
Cc1ccccc1[C@H]1[C@@H]2CN(C3=CC(=O)CC3)C[C@H]2CC[C@@H]1O[C@@H](CO)c1cc(C(F)(F)F)cc(C(F)(F)F)c1	2.1
Cc1ccccc1[C@H]1[C@@H]2CN(C(=O)N(C)C)C[C@H]2CC[C@@H]1O[C@@H](CO)c1cc(C(F)(F)F)cc(C(F)(F)F)c1	3.1
